Target: Serotonin 2 receptors; 5-HT2a & 5-HT2c (Homo sapiens) (UniProt P28223+P28335)
Assay: Selectivity ratio of EC50 for human 5HT2A receptor to EC50 for human 5HT2C-INI receptor

Chains of the proteins cited; added tags and fusions are not shown. Lines headed by an entry give the natural chain unless they say otherwise; changes in a name come on top.
UniProt P28223, whole entry, looked up: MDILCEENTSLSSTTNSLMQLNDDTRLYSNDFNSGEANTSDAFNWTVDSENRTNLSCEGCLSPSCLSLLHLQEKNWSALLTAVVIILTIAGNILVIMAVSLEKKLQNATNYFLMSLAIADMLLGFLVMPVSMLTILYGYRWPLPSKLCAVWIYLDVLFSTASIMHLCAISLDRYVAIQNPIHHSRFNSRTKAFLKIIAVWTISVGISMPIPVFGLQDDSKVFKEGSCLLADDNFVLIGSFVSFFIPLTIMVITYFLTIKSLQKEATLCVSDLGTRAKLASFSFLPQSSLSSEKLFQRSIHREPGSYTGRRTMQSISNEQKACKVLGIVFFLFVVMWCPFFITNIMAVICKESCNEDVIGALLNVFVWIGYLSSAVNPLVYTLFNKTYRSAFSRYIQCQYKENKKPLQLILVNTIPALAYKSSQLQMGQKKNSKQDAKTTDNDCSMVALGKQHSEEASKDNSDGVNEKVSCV
UniProt P28335: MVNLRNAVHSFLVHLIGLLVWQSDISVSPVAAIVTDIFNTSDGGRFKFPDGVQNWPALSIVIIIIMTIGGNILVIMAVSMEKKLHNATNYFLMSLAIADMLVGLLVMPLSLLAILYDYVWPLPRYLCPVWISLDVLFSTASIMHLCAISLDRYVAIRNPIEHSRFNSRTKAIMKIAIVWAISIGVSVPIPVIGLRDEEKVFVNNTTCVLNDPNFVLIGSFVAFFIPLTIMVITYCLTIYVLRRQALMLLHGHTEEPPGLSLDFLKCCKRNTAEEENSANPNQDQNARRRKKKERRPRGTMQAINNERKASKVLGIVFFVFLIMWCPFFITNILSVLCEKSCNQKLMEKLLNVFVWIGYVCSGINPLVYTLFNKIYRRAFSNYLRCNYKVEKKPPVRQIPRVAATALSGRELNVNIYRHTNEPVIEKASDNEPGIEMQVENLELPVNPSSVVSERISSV

COc1ccc(F)cc1C1CC1CNCc1ccccc1O.Cl (racemic) was tested, and the Ratio EC50 was 0.25.

Source: ChEMBL document CHEMBL4011649 (J Med Chem, 2017)
